Results from PubChem BioAssay AID588473 (Sanford-Burnham Center for Chemical Genomics, 2011).
The list shows a part of the results, in another mix than the full data. The source made the active and inactive calls.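 Rule for the calls: active = activation of at least 50%, plus an integration ratio under a set limit after plate pattern correction; inactive = the rest.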

System: CRF-binding protein / CRF receptor 2 complex (human)
Assay: agonists of CRF-BP/CRF-R2 complex, primary screen, cell-based, HEK293, calcium dye fluorescence, uHTS (AID 588473);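 note: plate controls were neutral control wells without compound for no effect and CRF at EC100 for full effect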
Conditions: calcium dye fluorescence (FLIPR), at 13.2 µM, hits give high values, percent of saturating CRF peptide response

SMILES | activation
CCC(=O)N(c1ccccc1)C1(COC)CCN(CCc2cccs2)CC1 | inactive: -1.11%
CCC(=O)N(c1ccccc1)C1(COC)CCN(CCn2nnn(CC)c2=O)CC1 | inactive: -0.06%
